Amino acid sequences for entries named in this document (tags omitted). Residues count along the entry.
UniProt P02768, 25-609: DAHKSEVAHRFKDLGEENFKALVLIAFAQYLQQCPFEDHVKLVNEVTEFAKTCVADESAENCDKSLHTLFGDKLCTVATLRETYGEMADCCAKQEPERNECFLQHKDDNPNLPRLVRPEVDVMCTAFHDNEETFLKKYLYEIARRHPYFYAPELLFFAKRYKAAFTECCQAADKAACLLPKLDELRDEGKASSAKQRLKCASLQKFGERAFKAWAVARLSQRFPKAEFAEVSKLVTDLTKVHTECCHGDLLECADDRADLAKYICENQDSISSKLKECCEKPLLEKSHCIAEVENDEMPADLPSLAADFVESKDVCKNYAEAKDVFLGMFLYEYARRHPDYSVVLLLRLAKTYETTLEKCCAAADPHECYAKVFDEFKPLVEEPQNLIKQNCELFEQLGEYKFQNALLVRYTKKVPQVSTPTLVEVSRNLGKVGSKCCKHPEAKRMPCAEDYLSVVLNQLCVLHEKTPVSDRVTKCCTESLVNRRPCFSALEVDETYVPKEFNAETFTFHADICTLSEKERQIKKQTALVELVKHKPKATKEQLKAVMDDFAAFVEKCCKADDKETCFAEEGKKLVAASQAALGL

In US8735439B2, “Chlorin e6-folic acid conjugate, preparation method thereof, and a pharmaceutical composition for the treatment of cancer comprising the same” (Diatech Korea Co., Ltd., priority 2009, dated 2014):

Target: human serum albumin (Homo sapiens, UniProt P02768)
Description: Pigment-protein complexes have been formed by adding to the solution of human serum albumin (HAS) a specific amount of photosensitizer dissolved in the same buffer. […] Similarly, the photosensitizer was included in detergent micelle (Triton X-100, C=10^−3M).
wherein r and C are the respectively concentrations of bound and unbound protein pigment, r+C=CΣ. […] It is also applicable with respect to pigment molecules included in Triton X-100 micelle.

“[γ-(6-aminohexyl)folic acid]-chlorin e6 [chlorin e6 conjugate]” was tested, and the “share of sensibilizer molecules involved in pigment-protein complex” value was 90%.
